The numbers were not newly measured in US7857977B2, “Packaging of ferric pyrophosphate for dialysis” (Rockwell Medical Technologies, Inc., priority 2005, dated 2010), which cites them from elsewhere.

In the case of iron-dextran, the “fraction of the iron that is bioavailable” value (after intravenous injection) is recorded as “about half”. Besides, under “formulated in water containing 0.9% sodium chloride, parenteral”, the “adverse reactions during injection” value is “occasionally causes severe allergic reactions, fever and rashes”.
